# Publication PMC6677629 (Cancer immunology research, 2019)
# Amino acid sequences for entries named in this document (tags omitted). Residues count along the entry.
# UniProt Q8NHJ6, 22-448: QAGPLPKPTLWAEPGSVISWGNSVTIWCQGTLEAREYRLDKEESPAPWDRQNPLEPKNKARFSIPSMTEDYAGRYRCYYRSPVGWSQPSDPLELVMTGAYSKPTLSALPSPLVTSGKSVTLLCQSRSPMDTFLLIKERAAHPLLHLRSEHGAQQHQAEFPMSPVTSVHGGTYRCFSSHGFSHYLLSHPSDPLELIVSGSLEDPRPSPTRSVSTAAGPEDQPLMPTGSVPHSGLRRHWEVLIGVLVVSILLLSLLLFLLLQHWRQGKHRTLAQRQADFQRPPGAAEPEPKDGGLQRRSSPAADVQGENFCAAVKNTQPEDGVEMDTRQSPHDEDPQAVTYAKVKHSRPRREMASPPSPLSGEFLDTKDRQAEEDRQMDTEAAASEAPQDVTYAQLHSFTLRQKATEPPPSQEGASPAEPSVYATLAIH
# What was measured:
# [1] = molecular target: T1, recombinant LILRB4 (Homo sapiens, UniProt Q8NHJ6); assay: BLI
# [2] = molecular target: T1, recombinant LILRB4; assay: ELISA
Binder,Kd [1],EC50 [2],binding result [2]
"humanized LILRB4 mAb h128–3 (antibody, V domains shown) VH: EVQLLESGGGLVQPGGSLRLSCAASGIDFSNHYYMYWVRQAPGKGLEWIGSIFSGDSASTYYADSAKGRFTISRDNSKNTLYLQMNSLRAEDTAVYYCARGMSTNDWASDLWGQGTLVTVSS VL: DIQMTQSPSSLSASVGDRVTITCQASESINSIYLAWYQQKPGKAPKLLIYRASTLASGVPSRFSGSGSGTDFTLTISSLQPEDFATYYCQQSYDWGDVENTFGGGTKVEIK",3.5 nM,0.23 nM,–
"h128–3 S103A (HCDR3) (antibody, V domains shown) VH: EVQLLESGGGLVQPGGSLRLSCAASGIDFSNHYYMYWVRQAPGKGLEWIGSIFSGDSASTYYADSAKGRFTISRDNSKNTLYLQMNSLRAEDTAVYYCARGMATNDWASDLWGQGTLVTVSS VL: DIQMTQSPSSLSASVGDRVTITCQASESINSIYLAWYQQKPGKAPKLLIYRASTLASGVPSRFSGSGSGTDFTLTISSLQPEDFATYYCQQSYDWGDVENTFGGGTKVEIK",–,–,binds
"h128–3 Y34A (HCDR1) (antibody, V domains shown) VH: EVQLLESGGGLVQPGGSLRLSCAASGIDFSNHYAMYWVRQAPGKGLEWIGSIFSGDSASTYYADSAKGRFTISRDNSKNTLYLQMNSLRAEDTAVYYCARGMSTNDWASDLWGQGTLVTVSS VL: DIQMTQSPSSLSASVGDRVTITCQASESINSIYLAWYQQKPGKAPKLLIYRASTLASGVPSRFSGSGSGTDFTLTISSLQPEDFATYYCQQSYDWGDVENTFGGGTKVEIK",–,–,no binding
"h128–3 Y33A (LCDR1) (antibody, V domains shown) VH: EVQLLESGGGLVQPGGSLRLSCAASGIDFSNHYYMYWVRQAPGKGLEWIGSIFSGDSASTYYADSAKGRFTISRDNSKNTLYLQMNSLRAEDTAVYYCARGMSTNDWASDLWGQGTLVTVSS VL: DIQMTQSPSSLSASVGDRVTITCQASESINSIALAWYQQKPGKAPKLLIYRASTLASGVPSRFSGSGSGTDFTLTISSLQPEDFATYYCQQSYDWGDVENTFGGGTKVEIK",–,–,no binding
"h128–3 Y93A (LCDR3) (antibody, V domains shown) VH: EVQLLESGGGLVQPGGSLRLSCAASGIDFSNHYYMYWVRQAPGKGLEWIGSIFSGDSASTYYADSAKGRFTISRDNSKNTLYLQMNSLRAEDTAVYYCARGMSTNDWASDLWGQGTLVTVSS VL: DIQMTQSPSSLSASVGDRVTITCQASESINSIYLAWYQQKPGKAPKLLIYRASTLASGVPSRFSGSGSGTDFTLTISSLQPEDFATYYCQQSADWGDVENTFGGGTKVEIK",–,–,no binding
